# AlphaSeq binding of Ab-14 light chain variants to a spike HR2 peptide

From the AlphaSeq antibody data of Engelhart et al. 2022 (doi:10.1038/s41597-022-01779-4), copy in the FLAb collection.

Target: peptide PDVDLGDISGINAS, taken from heptad repeat 2 (HR2) of SARS-CoV-2 spike.

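In library AAYL50, one, two or three CDR residues were substituted; doubles and triples were drawn at random. AlphaSeq pools MATa yeast showing the antibodies with MATalpha yeast showing the peptide. The frequency of each diploid, read from paired DNA barcodes, reflects how well the two displayed proteins bind. Scores were corrected for input abundance and mapped to Kd with protein pairs of known affinity run in the same pool. There are three technical replicates.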

The variants keep the heavy chain, the linker and the frameworks of Ab-14 (scFv order VH, the linker GGGGSGGGGSGGGGS, VL).
VH: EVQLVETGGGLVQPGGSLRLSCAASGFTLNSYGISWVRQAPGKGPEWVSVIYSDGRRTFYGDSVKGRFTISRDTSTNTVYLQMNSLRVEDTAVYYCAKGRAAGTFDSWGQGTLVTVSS
VL: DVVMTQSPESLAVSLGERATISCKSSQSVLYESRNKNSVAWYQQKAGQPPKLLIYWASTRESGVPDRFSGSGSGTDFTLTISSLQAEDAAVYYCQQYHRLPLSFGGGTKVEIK

The parent's light chain CDRs are KSSQSVLYESRNKNSVA, WASTRES, QQYHRLPLS; each variant's own CDRs replace them letter for letter. Numbers give log10(Kd / nM), so 0 is 1 nM and 3 is 1 µM. Smaller is tighter. An entry "nd" has no value in the source: the pair was not observed among the diploids in that replicate. This suggests poor binding but is not conclusive. Three control strains display no target. For library AAYL50, 18% of the pairings with them gave a signal, with a median of 4.19 and one signal in twenty below 2.99, so weak values seen in few replicates may be background. For each scFv, signals with the empty controls are counted beside the result, with their mean in brackets.

CDR-L1	CDR-L2	CDR-L3	replicates, log10 nM	signal with controls
KSSQSVLYEQRNKNSVA	WHSTRES	EQYHRLPLS	nd / nd / nd	2 of 9 (3.62)
KSSQSVLYERRNKNSVA	WASTRES	QKYHRLPLS	5.65 / 4.92 / nd	0 of 9
KSSQSVLYESRNKNSVA	WASCRES	QQYARIPLS	2.06 / 1.74 / 1.75	0 of 9
KSSQSVLYESRDKNSVA	WASTRES	QQYHRLPKT	nd / nd / 5.35	1 of 9 (3.94)
KSSQVVLYESRNKNMVA	SASTRES	QQYHRLPLS	0.93 / 1.12 / 1.10	4 of 9 (4.46)
KSSQSPLYESRNKNSVA	WASRRES	QQYHRLPLV	nd / nd / 3.29	1 of 9 (3.41)
KSSQSVLYESKNKNSVA	WASTRES	QTYHRLSLS	1.62 / 1.70 / 2.12	5 of 9 (4.21)
KSSQSVLYERRNKNSVA	WACTRES	QQYWRLPLS	4.85 / 2.94 / nd	0 of 9
KSSQSVLWEYRNKNSVA	WASTRES	QPYHRLPLS	1.49 / 1.33 / 1.87	1 of 9 (3.59)
KSSQSVLYESRNKNSVA	WATTRES	TQYCRLPLS	5.00 / 4.03 / nd	5 of 9 (4.87)
KSSQSVLYESRKWNSVA	WASTRES	QQYHRLPDS	2.12 / 1.75 / 1.97	4 of 9 (5.11)
KSSQSVLDESRNKNSVA	WASTRES	QQYHWAPLS	3.75 / nd / nd	3 of 9 (3.98)
KSSQSVLYESRMKNQVA	WASTRES	QQYHRLPLS	1.19 / 1.44 / 1.25	1 of 9 (2.72)
KESQSVLYESRNKNSVA	WASTRES	TQYHRLFLS	nd / nd / 3.93	1 of 9 (4.01)
KSSQQVLYESRNKNSVA	WASGRES	QQYHRLPLS	3.22 / 3.90 / 3.02	1 of 9 (4.24)
KSSQSVLYESRNKNSVA	WVSKREE	QQYHRLPLS	1.63 / 1.85 / 2.04	2 of 9 (3.84)
KSSQSVLYESRNANSVA	WASTRES	QQYNRLPVS	0.72 / 0.88 / 0.67	5 of 9 (4.76)
KSSQSVLYESRSKNSVA	WAATRES	WQYHRLPLS	3.35 / 2.91 / 4.10	4 of 9 (5.19)
KSSQSVLYESRNKNSVA	WTSTRES	QQYHFLPLS	2.26 / 2.11 / 3.15	2 of 9 (3.75)
KSSQSVLYESRNKNAVI	WASTGES	QQYHRLPLS	nd / nd / nd	3 of 9 (3.41)
KSLQSVLYEHRNINSVA	WASTRES	QQYHRLPLS	2.21 / 2.36 / 2.13	2 of 9 (3.75)
KSSQSVLEESRNKNSVR	WASTRES	QQGHRLPLS	2.72 / 2.36 / 3.73	1 of 9 (4.30)
KSSQSVLRESRNKNSVA	EASTRWS	QQYHRLPLS	0.47 / 0.70 / 0.49	6 of 9 (5.01)
KSSQSVLYESRNKNSVA	WASTREW	QQSHVLPLS	nd / 4.79 / nd	1 of 9 (3.52)
KSSQSVLYESSNKNSVA	WAYARES	QQYHRLPLS	0.26 / 0.86 / 0.77	1 of 9 (1.96)
KSSQSVLYESRNKNTVQ	WASTRES	QQYHRLPIS	nd / nd / nd	0 of 9
KSSQSVLYQSRNKNSVA	WASTAES	QQWHRLPLS	4.48 / nd / nd	3 of 9 (3.49)
KSSQSALYENRNKNSVA	WASTCES	QQYHRLPLS	4.39 / 5.10 / 4.05	6 of 9 (4.13)
KSSQSVLYESRNKMSVA	WASTRES	NQYHRDPLS	nd / nd / nd	0 of 9
KSSQPVLYESRNKNEVT	WASTRES	QQYHRLPLS	nd / 4.60 / nd	2 of 9 (3.34)
KSSQSVCYESRNKNSVK	GASTRES	QQYHRLPLS	4.25 / 5.25 / 4.78	5 of 9 (4.33)
KESQSVLYEVRNKNSVA	WASTRES	QQYHQLPLS	4.29 / 3.13 / 3.92	2 of 9 (4.87)

Excerpt, the first 4 entries:

CDR-L1	CDR-L2	CDR-L3	replicates, log10 nM	signal with controls
KSSQSVLYEQRNKNSVA	WHSTRES	EQYHRLPLS	nd / nd / nd	2 of 9 (3.62)
KSSQSVLYERRNKNSVA	WASTRES	QKYHRLPLS	5.65 / 4.92 / nd	0 of 9
KSSQSVLYESRNKNSVA	WASCRES	QQYARIPLS	2.06 / 1.74 / 1.75	0 of 9
KSSQSVLYESRDKNSVA	WASTRES	QQYHRLPKT	nd / nd / 5.35	1 of 9 (3.94)